The experiment has as its target T1, GIPR-ECD (Homo sapiens, UniProt P48546).
T1 construct: the x-ray crystal structure of these antibodies in complex with GIPR-ECD was determined
T1 sequence (P48546 22-138 limits assumed): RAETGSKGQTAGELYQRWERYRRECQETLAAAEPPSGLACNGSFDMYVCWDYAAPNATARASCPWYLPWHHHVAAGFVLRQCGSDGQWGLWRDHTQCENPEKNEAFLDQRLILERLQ
In words: Binding epitope by x-ray crystal structure and structure-based descriptor (SBD) method. Conditions: SBD method on crystal or cryo-EM structure of the complex.

One substance from patent publication US20250163168A1, “NOVEL ANTIBODIES AND ANTIBODY CONJUGATES FOR THE TREATMENT OF METABOLIC DISORDERS” (PFIZER INC., priority 2023, published 2025) can be followed below.

Turning to “Glucose-dependent insulinotropic polypeptide [GIP]”, the “residues in the GIPR-ECD epitope” value is “GLN30, ALA32, LEU35, TYR36, TRP39, MET67, TYR68, TRP71, TRP90, ARG101, ARG113, HIS115, GLN130, ARG131, LEU134, LEU137, and GLN138”.
